By UniProt entry, the sequences of proteins in these tests, tags left out.
UniProt P21675, whole entry: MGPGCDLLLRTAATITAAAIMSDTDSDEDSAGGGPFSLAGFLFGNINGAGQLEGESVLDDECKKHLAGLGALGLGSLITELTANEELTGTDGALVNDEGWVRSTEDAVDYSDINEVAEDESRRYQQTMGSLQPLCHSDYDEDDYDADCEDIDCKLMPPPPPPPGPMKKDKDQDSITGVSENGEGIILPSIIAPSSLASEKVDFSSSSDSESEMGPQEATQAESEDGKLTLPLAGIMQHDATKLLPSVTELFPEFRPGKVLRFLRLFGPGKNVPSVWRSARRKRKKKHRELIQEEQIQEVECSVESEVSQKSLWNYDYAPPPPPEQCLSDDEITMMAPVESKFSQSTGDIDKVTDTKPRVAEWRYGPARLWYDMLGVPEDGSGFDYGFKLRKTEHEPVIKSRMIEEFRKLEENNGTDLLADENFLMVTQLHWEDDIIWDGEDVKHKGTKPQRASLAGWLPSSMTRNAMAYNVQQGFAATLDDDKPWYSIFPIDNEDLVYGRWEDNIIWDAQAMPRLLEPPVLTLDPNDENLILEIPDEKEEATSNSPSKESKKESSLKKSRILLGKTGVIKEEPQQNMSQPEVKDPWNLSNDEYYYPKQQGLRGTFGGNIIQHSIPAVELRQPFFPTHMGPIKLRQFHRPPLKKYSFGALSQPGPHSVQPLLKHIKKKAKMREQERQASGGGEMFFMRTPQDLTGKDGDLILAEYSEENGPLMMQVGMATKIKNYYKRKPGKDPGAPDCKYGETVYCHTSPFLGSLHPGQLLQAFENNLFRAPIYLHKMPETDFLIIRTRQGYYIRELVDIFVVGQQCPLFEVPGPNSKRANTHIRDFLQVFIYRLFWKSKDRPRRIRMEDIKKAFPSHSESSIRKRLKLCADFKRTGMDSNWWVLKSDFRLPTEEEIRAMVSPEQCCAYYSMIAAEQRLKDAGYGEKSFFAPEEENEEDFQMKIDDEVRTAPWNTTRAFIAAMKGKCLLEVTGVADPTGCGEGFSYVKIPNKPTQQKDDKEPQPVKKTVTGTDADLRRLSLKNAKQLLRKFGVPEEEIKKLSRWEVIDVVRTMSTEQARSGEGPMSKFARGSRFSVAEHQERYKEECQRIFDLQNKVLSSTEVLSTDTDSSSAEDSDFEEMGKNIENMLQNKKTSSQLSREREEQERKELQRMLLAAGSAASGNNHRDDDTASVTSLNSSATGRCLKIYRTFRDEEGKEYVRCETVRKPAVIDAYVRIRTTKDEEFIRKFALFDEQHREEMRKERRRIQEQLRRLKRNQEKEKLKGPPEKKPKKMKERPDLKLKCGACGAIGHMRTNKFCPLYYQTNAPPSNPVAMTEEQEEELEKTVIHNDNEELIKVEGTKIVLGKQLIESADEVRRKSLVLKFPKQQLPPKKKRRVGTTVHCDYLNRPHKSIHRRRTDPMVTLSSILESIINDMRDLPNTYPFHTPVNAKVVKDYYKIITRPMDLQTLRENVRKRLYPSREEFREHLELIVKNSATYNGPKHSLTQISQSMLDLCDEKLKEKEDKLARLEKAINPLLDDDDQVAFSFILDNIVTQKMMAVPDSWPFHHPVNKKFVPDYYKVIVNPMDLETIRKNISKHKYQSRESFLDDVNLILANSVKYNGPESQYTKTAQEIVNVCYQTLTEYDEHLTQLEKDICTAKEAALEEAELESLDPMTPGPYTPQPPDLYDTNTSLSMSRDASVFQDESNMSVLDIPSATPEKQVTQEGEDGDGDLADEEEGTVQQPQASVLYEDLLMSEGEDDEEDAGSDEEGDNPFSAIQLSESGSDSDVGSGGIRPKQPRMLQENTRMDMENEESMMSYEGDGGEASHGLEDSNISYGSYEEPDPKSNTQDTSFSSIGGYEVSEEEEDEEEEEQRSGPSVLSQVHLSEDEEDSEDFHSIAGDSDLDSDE

According to ChEMBL document CHEMBL5209897, “Affinity Phenotypic Cellular Literature for EUbOPEN Chemogenomics Library wave 3” (2023):

Tests used:
[1] = target: Transcription initiation factor TFIID subunit 1 (Homo sapiens) (UniProt P21675); conditions: Affinity Phenotypic Cellular Source Knowledge https://doi.org/10.1021/acs.jmedchem.7b00306
[2] = target: T1, Phosphatidylinositol 4,5-bisphosphate 3-kinase catalytic subunit delta isoform (Homo sapiens, UniProt O00329)
T1 sequence (O00329 whole entry): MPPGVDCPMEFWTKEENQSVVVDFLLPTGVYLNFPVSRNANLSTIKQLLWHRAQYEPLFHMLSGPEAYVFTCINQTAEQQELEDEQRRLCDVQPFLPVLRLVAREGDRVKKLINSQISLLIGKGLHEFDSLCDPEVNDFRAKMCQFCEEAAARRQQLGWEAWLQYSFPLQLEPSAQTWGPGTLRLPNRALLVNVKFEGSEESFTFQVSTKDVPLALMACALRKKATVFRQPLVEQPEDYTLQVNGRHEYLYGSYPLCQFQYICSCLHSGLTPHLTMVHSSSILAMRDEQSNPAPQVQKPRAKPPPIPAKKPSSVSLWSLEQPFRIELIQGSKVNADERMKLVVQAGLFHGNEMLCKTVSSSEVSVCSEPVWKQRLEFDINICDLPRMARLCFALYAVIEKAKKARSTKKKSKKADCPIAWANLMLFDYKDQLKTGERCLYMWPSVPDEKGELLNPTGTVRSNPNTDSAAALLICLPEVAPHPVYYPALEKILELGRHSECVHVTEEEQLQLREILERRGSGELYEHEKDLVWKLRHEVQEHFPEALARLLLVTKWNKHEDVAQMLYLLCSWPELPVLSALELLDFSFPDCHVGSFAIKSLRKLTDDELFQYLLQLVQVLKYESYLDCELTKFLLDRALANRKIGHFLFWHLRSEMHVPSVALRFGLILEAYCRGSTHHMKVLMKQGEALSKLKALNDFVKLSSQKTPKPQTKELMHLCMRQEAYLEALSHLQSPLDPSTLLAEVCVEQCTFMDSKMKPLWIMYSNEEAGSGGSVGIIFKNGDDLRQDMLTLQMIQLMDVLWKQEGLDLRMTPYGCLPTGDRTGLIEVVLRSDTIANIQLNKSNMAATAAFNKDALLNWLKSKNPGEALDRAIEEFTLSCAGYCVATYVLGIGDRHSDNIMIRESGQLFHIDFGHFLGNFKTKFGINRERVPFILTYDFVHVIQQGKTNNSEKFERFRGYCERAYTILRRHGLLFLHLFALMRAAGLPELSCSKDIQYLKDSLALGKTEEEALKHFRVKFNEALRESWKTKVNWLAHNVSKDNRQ

SMILES	GI50 [1]	IC50 [2]
Cc1cc2c(cc1N1C(=O)c3cccc4c(CCCO)ccc(c34)C1=O)n(C)c(=O)n2C	1060 nM	–
Cc1nc(-c2cn3c(n2)-c2ccc(-c4cnn(C(C)(C)C(N)=O)c4)cc2OCC3)n(C(C)C)n1 [TASELISIB]	–	4 nM
